Assay [1] deals with 5-lipoxygenase (5-LO). The settings on record: 5-HETE from exogenous arachidonic acid (30 μM); same doses as COX recovery.
Assay [2] concerns COX-1. The settings on record: LPS; radicicol 50 and 200 ng/ml; 16 hours; listed as radicicol.
For assay [3], the system named is COX-1. The settings on record: radicicol 1000 ng/ml.
In assay [4] the test system is IL-1. The settings on record: for expression of IL-1 protein: LPS (10 μg/ml).
Assay [5] relates to TNF-α. The settings on record: LPS-stimulated macrophages; FIGS. 14 and 15.
Assay [6] relates to mRNA for proinflammatory agents (IFNγ, MCP-1, MIP-2, KC, PTPase, GM-CSF, TF, IL-6, IL-1α). The following applies: LPS stimulated macrophages; FIG. 16.
Assay [7] has as its system IL-1β mRNA. The settings on record: LPS; FIG. 17E.
Assay [8] has as its system MIP2 mRNA. The following applies: LPS; FIG. 17D.
Assay [9] concerns KC mRNA. The settings on record: LPS; FIG. 17F.
Assay [10] concerns GM-CSF mRNA. The settings on record: LPS; FIG. 17I.
Assay [11] concerns IL-6 mRNA. The settings on record: LPS; FIG. 17J.
The test system of assay [12] is TF mRNA. The following applies: LPS; FIG. 17H.
The test system of assay [13] is PTPase mRNA. The following applies: LPS; FIG. 17K.
Assay [14] has as its system COX-1 mRNA. The settings on record: n=3; 10 μg/100 g body weight per minute, renal artery, 60 minutes; vs vehicle.
The subject of assay [15] is PGE2. The following applies: for PGE2 levels in kidney / PGE2 levels in glomeruli: 10 μg/100 g body weight/minute, renal artery, 60 minutes, mean ± SEM of 3.
In assay [16] the test system is p60^v-src. The following applies: Kwon et al. 1992; cited from earlier work.
The subject of assay [17] is tyrosine phosphorylated proteins (Src family tyrosine kinases). Nature of the assay: Antiphosphotyrosine immunoblotting of LPS-stimulated macrophages. The settings on record: 4 hours pretreatment; LPS (10 μg/ml); rat alveolar macrophages.
The test system of assay [18] is p53/56^lyn. The following applies: 4 hours pretreatment; LPS (10 μg/ml).
The test system of assay [19] is p388D1 macrophage-like cells. The following applies: LPS-primed p388D1; Glaser et al. 1990; cited from earlier work.
Where [20] appears, read: rats with experimental GN, result in words.

“Also recorded” adds a separate entry of the source. Where two headings read alike, the source gives them in different places.

For the compound `C[C@@H]1C[C@H]2O[C@@H]2/C=C\C=C\C(=O)Cc2c(Cl)c(O)cc(O)c2C(=O)O1` [Radicicol, 5-chloro-6-(7,8-epoxy-10-hydroxy-2-oxo-3,5-undecadienyl)-β-resorcyclic acid μ-lactone], the “effect on 5-lipoxygenase activity” value in assay [1] is recorded as “did not significantly affect”. For the same compound, the “expression of COX-1 protein” value in [2] is recorded as “not affected”. Also, the “effect on enzyme activity of purified COX-1” value in assay [3] is given as “not affected”. In addition, the “expression of IL-1” value in assay [4] (LPS-stimulated macrophages, FIGS. 14 and 15) was “effectively inhibited”. Also, the “expression of IL-1 protein” value in assay [4] (radicicol 50 ng/ml) was “effectively reduces IL-1 expression”; in assay [4] (radicicol 200 ng/ml) it was “almost completely abolishes IL-1 protein”. The “expression of TNF-α” value in assay [5] is on record as “effectively inhibited”. Besides, the “mRNA for many proinflammatory agents” value in [6] was “reduced”. For the same compound, the “stability of mRNA for IL-1β” value in assay [7] is reported as “affects stability of mRNA”. The “stability of mRNA for MIP2” value in assay [8] is “affects stability of mRNA”. In addition, the “stability of mRNA for KC” value in [9] is reported as “affects stability of mRNA”. Moreover, the “stability of mRNA for GM-CSF” value in assay [10] is “affects stability of mRNA”. Besides, the “stability of mRNA for IL-6” value in assay [11] was “affects stability of mRNA”. Further, the “rate of degradation for TF mRNA” value in assay [12] is given as “not significantly affected”. Moreover, the “rate of degradation for PTPase mRNA” value in assay [13] is “not significantly affected”. The “levels of COX-1 mRNA in glomeruli” value in [14] is “not COX-1 mRNA”. The “PGE2 levels in kidney” value in assay [15] (4 hours, vehicle 1110 ± 29) is 1114 ± 140 ng/mg protein; in [15] (24 hours, vehicle 1185 ± 68) it was 1097 ± 109 ng/mg protein. Moreover, the “PGE2 levels in glomeruli” value in assay [15] (4 hours, vehicle 3722 ± 536, p ≤0.05) is reported as 2486 ± 150 ng/mg protein; in [15] (24 hours, vehicle 2506 ± 32, p ≤0.001), 1170 ± 19 ng/mg protein. Also, the “levels of PGE2 in glomeruli” value in [15] (setting [20]) is “reduction of PGE2 levels”. For the same compound, in [15] (setting [20]), the “levels of PGE2 in the whole kidney” value was “not affected”. Further, the “ability to block p60^v-src kinase activity in presence of dithiothreitol” value in [16] is on record as “abolished”. Moreover, the “levels of tyrosine phosphorylated proteins” value in assay [17] was “suppression of levels of tyrosine phosphorylated proteins in time dependent and dose dependent fashions”. Also, the “levels of p53/56^lyn” value in assay [18] was “significant reduction levels of p53/56^lyn; also recorded: inhibited tyrosine phosphorylation and levels of p53/56^lyn in a time dependent and dose dependent fashion”.
Regarding `O=c1c(-c2ccc(O)cc2)coc2cc(O)cc(O)c12` [genistein], in [19], the “platelet-activating factor-stimulated PGE2 production” value was “inhibit”.

The values are drawn from patent US5731343A (dated 1998).
